This note sets out measurements from ChEMBL document CHEMBL4400563, “Discovery of a small molecule RXFP3/4 agonist that increases food intake in rats upon acute central administration” (Bioorg Med Chem Lett, 2019).

For experiment [1], the target named is T1, Relaxin-3 receptor 1 (Homo sapiens) (UniProt Q9NSD7).
T1 sequence (whole entry): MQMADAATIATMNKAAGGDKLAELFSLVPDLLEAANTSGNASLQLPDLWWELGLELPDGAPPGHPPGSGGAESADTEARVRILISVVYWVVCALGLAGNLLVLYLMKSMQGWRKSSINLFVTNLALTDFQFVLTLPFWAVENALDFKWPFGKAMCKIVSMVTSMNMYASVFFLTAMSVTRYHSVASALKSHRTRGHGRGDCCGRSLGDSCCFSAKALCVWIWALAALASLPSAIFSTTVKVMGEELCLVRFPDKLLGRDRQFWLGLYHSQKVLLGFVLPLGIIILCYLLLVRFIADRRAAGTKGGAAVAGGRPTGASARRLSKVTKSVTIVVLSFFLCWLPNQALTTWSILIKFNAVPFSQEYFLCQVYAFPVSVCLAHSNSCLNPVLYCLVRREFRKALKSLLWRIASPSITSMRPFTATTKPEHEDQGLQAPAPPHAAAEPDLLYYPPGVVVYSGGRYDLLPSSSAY
The experiment can be described thus: Agonist activity at human RXFP3 expressed in CHOK1 cells assessed as inhibition of forskolin-stimulated intracellular cAMP accumulation preincubated for 30 mins followed by forskolin-stimulation and measured after 30 mins by HTRF assay relative to relaxin-3. Type of experiment: functional, cell-based. (Changes in cAMP serve as a functional read-out for many G protein-coupled receptors.)

A further experiment addresses T2, Relaxin-3 receptor 1 (Homo sapiens, UniProt Q9NSD7).
T2 sequence (Q9NSD7 whole entry): T1 sequence (whole entry)
The experiment can be described thus: Displacement of [125I]-R3/I5 from human RXFP3 expressed in CHOK1 cell membranes by radioligand binding assay. The experiment is classed as cell-based.

Regarding `COc1cc(C)c2[nH]cc(/C=N/NC(=N)NCCc3ccc(Cl)c(Cl)c3)c2c1`, in experiment [1], the maximal effect (Emax) (usually the greatest response seen or fitted, relative to the assay's reference) lay in the range of 97 to 97.3%. At Relaxin-3 receptor 1, affinity was put at a Ki of 1700 nM.
